Earlier results as cited in publication PMC9230956.

Amino acid sequences for entries named in this document (tags omitted). Residues count along the entry.
UniProt P19235, 25-250: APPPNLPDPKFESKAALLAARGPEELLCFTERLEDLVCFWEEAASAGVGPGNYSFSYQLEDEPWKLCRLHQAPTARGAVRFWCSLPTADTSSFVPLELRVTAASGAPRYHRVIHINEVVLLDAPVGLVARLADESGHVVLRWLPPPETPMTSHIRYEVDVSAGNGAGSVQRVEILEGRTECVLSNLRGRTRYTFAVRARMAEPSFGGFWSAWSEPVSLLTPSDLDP

Biological target: EPOR (Homo sapiens) (UniProt P19235)
Test: magnetic modulation biosensing

EPO (from UniProt P01588)
Kd: 1.4 nM
